Data set [1] concerns the target T1, CYP2D6 (Homo sapiens (Human), UniProt P10635). Description: Screening test on contribution ratio of CYP2D6 in human liver microsomal metabolism. Format: in vitro ADME. As to conditions: 1 mg/mL human liver microsomes, 1 μM test substance, with/without 4 μM quinidine; values marked *) are reference values due to relative stability. On the procedure:
Screening Test on Contribution Ratio of CYP2D6 in Human Liver Microsomal Metabolism
0.2 mL of a 50 mM potassium phosphate buffer (pH 7.4) containing 3 mM (final concentration) NADPH (manufactured by Oriental Yeast Co., Ltd.), 1 mg/mL human liver microsomes (manufactured by Xenotech, LLC) and 1 μM test substance was warmed in a water bath at 37° C. for metabolic reaction. After 15- or 30-minute reaction, the reaction was terminated by the addition of a 3-fold volume of methanol with respect to the reaction solution and subsequent stirring. This reaction solution was centrifuged to precipitate proteins. Then, the supernatant was collected and subjected to LC-MS/MS analysis. The results were analyzed as follows:
The test substance was quantified, and time-dependent change in its residual amount was logarithmically plotted. The rate of metabolism was calculated from the slope.
The ratio of the rate of metabolism in the presence of quinidine added at 4 μM (final concentration) to the reaction solution to that in the absence of quinidine was used as the contribution ratio of enzymes other than CYP2D6. […] Specifically, it was calculated according to the formula: Contribution ratio (%)={1−(Rate of metabolism [in the presence of quinidine]/Rate of metabolism [in the absence of quinidine])}×100 The smaller numeric value of the contribution ratio of CYP2D6 means the small contribution of CYP2D6.

Sequences of proteins named here, by UniProt entry; tags and fusion partners are left off.
UniProt P10635, whole entry: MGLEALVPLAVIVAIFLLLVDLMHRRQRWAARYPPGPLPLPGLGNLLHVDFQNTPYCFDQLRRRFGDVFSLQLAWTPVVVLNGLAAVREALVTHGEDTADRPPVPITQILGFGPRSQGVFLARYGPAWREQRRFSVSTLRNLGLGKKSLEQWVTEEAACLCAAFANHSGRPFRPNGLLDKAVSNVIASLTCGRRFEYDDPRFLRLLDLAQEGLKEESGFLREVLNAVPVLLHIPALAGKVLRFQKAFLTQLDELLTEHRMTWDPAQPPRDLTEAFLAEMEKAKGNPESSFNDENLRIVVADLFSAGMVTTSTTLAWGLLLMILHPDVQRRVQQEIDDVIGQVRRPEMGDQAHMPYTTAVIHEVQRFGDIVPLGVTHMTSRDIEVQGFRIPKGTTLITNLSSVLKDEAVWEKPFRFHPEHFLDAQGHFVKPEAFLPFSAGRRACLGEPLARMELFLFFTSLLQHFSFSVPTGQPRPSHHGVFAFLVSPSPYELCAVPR

In data set [2] the target is T1, CYP2D6. As to the kind of experiment: CYP2D6 inhibition screening test (bufuralol 1'-hydroxylation, pooled human liver microsomes). Type of data set: in vitro ADME. As to conditions: substrate bufuralol, 37° C. 10 min. How it is done:
CYP2D6 Inhibition Screening Test
Bufuralol hydrochloride was purchased from Toronto Research Chemicals Inc., and pooled human liver microsomes were purchased from Xenotech, LLC.
Bufuralol hydrochloride was dissolved in DMSO at a concentration of 1.0 mM and then diluted 20-fold with distilled water.
• 1. A 10 mM solution of a test drug in DMSO was serially diluted with DMSO at four 5-fold dilutions to prepare 10, 2, 0.4 and 0.08 mM DMSO solutions. • 2. Each test drug solution of step 1 or DMSO was diluted 160-fold with the human liver microsome solution and dispensed at a concentration of 80 μL/well to a microplate. • 3. 10 μL of the substrate solution and 10 μL of the β-NADPH solution were added to each well of step 2, and the mixture was incubated at 37° C. for 10 min. • 4. The reaction was terminated by the addition of 300 μL of methanol. • 5. The reaction mixture was filtered and analyzed by LC-MS/MS. 3-4 Quantification and Calculation
The amount of 1′-hydroxybufuralol formed was determined by LC-MS/MS, and this value was used as the metabolic activity value of CYP2D6 in each well. The residual activity of each sample-supplemented group was determined by comparison with the activity in the well containing DMSO used as a test drug. IC50 values in CYP2D6 inhibition were determined from the test drug concentrations. […]

In the case of “6-(2-{4-[4-Bromo-3-(2-methoxyethoxy)benzyl]piperidin-1-yl}ethyl)-3,4-dihydro-2H-chromen-4-ol benzenesulfonate (salt) [Compound 5-1]”, the CYP2D6 contribution ratio at CYP2D6 [1] is 39*) %. In addition, the 50% inhibitory concentration (IC50) against CYP2D6 [2] is 34 µM.
As to “(+)-6-(2-{4-[4-Bromo-3-(2-methoxyethoxy)benzyl]piperidin-1-yl}ethyl)-3,4-dihydro-2H-chromen-4-ol benzenesulfonate (salt) [Compound 5-12]”, the CYP2D6 contribution ratio at CYP2D6 [1] came to 0%. Moreover, it took 42.5 µM to reach half-maximal inhibition at CYP2D6 [2] (IC50).

Values taken from patent publication US8778970B2, “Benzyl piperidine compound” (Dainippon Sumitomo Pharma Co., Ltd, priority 2009, dated 2014).
